The numbers were not newly measured in paper PMC3204214 (Proteins, 2011), which cites them from elsewhere.

pKd: −log10 of the molar value.

In general, pKd refers to the negative decadic logarithm of the Kd, by convention in mol/L.

In this series the target is melittin (Apis mellifera) (UniProt P01501). The note with it: cited from earlier work.

On to apo-calmodulin (from UniProt P0DP23), for which the pKd is 5.00.
